In patent publication US10093660B2, “Sulfoximine substituted quinazolines for pharmaceutical compositions” (EVOTEC INTERNATIONAL GMBH, priority 2013, dated 2018):
pIC50: −log10 of the molar value.

By UniProt entry, the sequences of proteins in these tests, tags left out. Where a name states a change or a piece, a line headed by the entry shows the natural chain unless it says otherwise. Chains listed by the source or under a name are the forms on record and can include a tag or linker.
UniProt Q9HBH9: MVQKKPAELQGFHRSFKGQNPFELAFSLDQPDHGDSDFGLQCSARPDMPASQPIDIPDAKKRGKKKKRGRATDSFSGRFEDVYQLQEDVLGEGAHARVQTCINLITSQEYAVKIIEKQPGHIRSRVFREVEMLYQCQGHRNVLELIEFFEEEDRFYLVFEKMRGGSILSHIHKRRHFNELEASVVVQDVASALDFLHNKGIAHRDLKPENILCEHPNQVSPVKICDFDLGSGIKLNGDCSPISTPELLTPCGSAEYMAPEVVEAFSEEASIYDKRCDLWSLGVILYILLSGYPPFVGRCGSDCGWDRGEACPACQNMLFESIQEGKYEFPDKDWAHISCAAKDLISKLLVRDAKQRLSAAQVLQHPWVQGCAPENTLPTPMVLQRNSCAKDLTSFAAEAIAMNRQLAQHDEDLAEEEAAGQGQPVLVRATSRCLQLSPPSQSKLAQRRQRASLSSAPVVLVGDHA
UniProt Q9BUB5, other isoform, or with tags, fused parts or gaps: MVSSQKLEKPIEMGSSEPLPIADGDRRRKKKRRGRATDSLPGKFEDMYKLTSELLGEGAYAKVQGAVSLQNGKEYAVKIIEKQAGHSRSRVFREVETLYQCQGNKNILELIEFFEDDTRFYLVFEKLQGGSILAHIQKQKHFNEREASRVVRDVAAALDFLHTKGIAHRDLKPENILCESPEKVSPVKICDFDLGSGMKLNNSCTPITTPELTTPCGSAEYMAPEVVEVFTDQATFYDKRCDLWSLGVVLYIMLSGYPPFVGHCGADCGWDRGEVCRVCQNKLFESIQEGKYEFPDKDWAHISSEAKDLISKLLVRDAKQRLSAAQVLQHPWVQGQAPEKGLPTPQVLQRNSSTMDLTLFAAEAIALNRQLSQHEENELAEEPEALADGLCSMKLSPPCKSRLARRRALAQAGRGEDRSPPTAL

Target: MNK2a (Homo sapiens (Human), UniProt Q9HBH9)
Assay: MNK2a in vitro kinase assay (Assay 2), ADP-Glo
Format: biochemical
Conditions: read-out: MNK2 IC50
From the text: B. MNK2a In Vitro Kinase Assay (Assay 2)

pIC50 | SMILES
8.10 | Cc1cc(N=S(C)(=O)C2CC2)cc2ncnc(Nc3ccc(F)cc3O[C@H]3COC[C@@H]3O)c12 (stereo partly drawn) [Example 2.77]
8.70 | CO[C@@H]1CC[C@@H](Oc2cc(F)ccc2Nc2ncnc3cc(N=S(C)(C)=O)cc(C)c23)CO1 (racemic) [Example 2.63]
8.40 | O=S1(=Nc2cc(F)c3c(Nc4cccnc4O[C@H]4COC[C@@H]4O)ncnc3c2)CCCC1 [Example 2.44]
7.80 | Cc1cc(N=S2(=O)CCCCC2)cc2ncnc(Nc3cccnc3O[C@H]3COC[C@H]3O)c12 (racemic) [Example 2.31]
8.40 | Cc1cc(N=S(C)(C)=O)cc2ncnc(Nc3ccc(F)cc3O[C@H]3COC[C@@H]3O)c12 [Example 2.27]
8.52 | O=S1(=Nc2cc(F)c3c(Nc4ccc(F)cc4O[C@H]4COC[C@@H]4O)ncnc3c2)CCCC1 [Example 2.66]
7.66 | CO[C@H]1COC[C@H]1Oc1ncccc1Nc1ncnc2cc(N=S(C)(C)=O)cc(C)c12 (racemic) [Example 2.1]
7.72 | Cc1cc(N=S2(=O)CCCC2)cc2ncnc(Nc3cccnc3O[C@@H]3COC[C@@H]3O)c12 (single isomer, unassigned) [Example 14.3]
7.62 | CO[C@@H]1COC[C@H]1Oc1ncccc1Nc1ncnc2cc(N=S(C)(C)=O)cc(C)c12 (racemic) [Example 2.34]
8.05 | CO[C@@H]1COC[C@H]1Oc1ncccc1Nc1ncnc2cc(N=S3(=O)CCC3)cc(C)c12 (racemic) [Example 2.35]
8.40 | Cc1cc(N=S2(=O)CCCC2)cc2ncnc(Nc3cccnc3O[C@H]3COC[C@@H]3O)c12 [Example 2.24]
8.70 | Cc1cc(N=S2(=O)CCCC2)cc2ncnc(Nc3cccnc3O[C@H]3COC[C@H]3O)c12 (single isomer, unassigned) [Example 14.4]
8.15 | O=S1(=Nc2cc(F)c3c(Nc4cccnc4O[C@H]4COC[C@H]4O)ncnc3c2)CCC1 (racemic) [Example 2.33]
8.15 | Cc1cc(N=S(C)(C)=O)cc2ncnc(Nc3ccc(F)cc3O[C@H]3COC[C@@H]3O)c12 [Example 2.45]

SMILES | pIC50
Cc1cc(N=S2(=O)CCC2)cc2ncnc(Nc3ccc(F)cc3O[C@H]3COC[C@@H]3O)c12 [Example 2.36] | 8.52
Cc1cc(N=S2(=O)CCC2)cc2ncnc(Nc3ccc(F)cc3O[C@H]3COC[C@H]3O)c12 (single isomer, unassigned) [Example 1.37] | 8.52
Cc1cc(N=S2(=O)CCC2)cc2ncnc(Nc3ccc(F)cc3O[C@@H]3COC[C@@H]3O)c12 (single isomer, unassigned) [Example 1.36] | 8.52
Cc1cc(N=S2(=O)CCC2)cc2ncnc(Nc3ccc(F)cc3O[C@@H]3COC[C@H]3O)c12 [Example 2.47] | 8.52
Cc1cc(N=S2(=O)CCC2)cc2ncnc(Nc3cccnc3O[C@H]3COC[C@@H]3O)c12 [Example 2.41] | 8.70
Cc1cc(N=S2(=O)CCC2)cc2ncnc(Nc3cccnc3O[C@@H]3COC[C@H]3O)c12 [Example 2.49] | 8.22

Target: MNK1a (Homo sapiens (Human), UniProt Q9BUB5)
Assay: MNK1 in vitro kinase assay (Assay 3), Z'-LYTE
Format: biochemical
Conditions: not given
From the text: C. MNK1 In Vitro Kinase Assay (Assay 3)
MNK1 Data can be obtained from the MNK1 Z′-LYTE® assay. The MNK1 Z′-LYTE® screening protocol and assay conditions are also described on www.invitrogen.com.
The assay is described as follows:
The Z′-LYTE® biochemical assay employs a fluorescence-based, coupled-enzyme format and is based on the differential sensitivity of phosphorylated and non-phosphorylated peptides to proteolytic cleavage. The peptide substrate is labeled with two fluorophores—one at each end—that make up a FRET pair.
In the primary reaction, the kinase transfers the gamma-phosphate of ATP to a single tyrosine, serine or threonine residue in a synthetic FRET-peptide. In the secondary reaction, a site-specific protease recognizes and cleaves non-phosphorylated FRET-peptides. […] A ratiometric method, which calculates the ratio (the Emission Ratio) of donor emission to acceptor emission after excitation of the donor fluorophore at 400 nm, is used to quantitate reaction progress, as shown in the equation below. […]
9. Read on fluorescence plate reader and analyze the data […]
SelectScreen® Kinase Profiling Service uses XLfit from IDBS. […] The activity of a candidate agent can then be determined via its ability to decrease the enzymatic activity of the MNK protein. The kinase activity may be detected by change of the chemical, physical or immunological properties of the substrate due to phosphorylation.

pIC50 | SMILES
7.00 | Cc1cc(N=S(C)(C)=O)cc2ncnc(Nc3cccnc3O[C@H]3COC[C@H]3OCCF)c12 (racemic) [Example 2.26]
